By UniProt entry, the sequences of proteins in these tests, tags left out.
UniProt P08485, whole entry: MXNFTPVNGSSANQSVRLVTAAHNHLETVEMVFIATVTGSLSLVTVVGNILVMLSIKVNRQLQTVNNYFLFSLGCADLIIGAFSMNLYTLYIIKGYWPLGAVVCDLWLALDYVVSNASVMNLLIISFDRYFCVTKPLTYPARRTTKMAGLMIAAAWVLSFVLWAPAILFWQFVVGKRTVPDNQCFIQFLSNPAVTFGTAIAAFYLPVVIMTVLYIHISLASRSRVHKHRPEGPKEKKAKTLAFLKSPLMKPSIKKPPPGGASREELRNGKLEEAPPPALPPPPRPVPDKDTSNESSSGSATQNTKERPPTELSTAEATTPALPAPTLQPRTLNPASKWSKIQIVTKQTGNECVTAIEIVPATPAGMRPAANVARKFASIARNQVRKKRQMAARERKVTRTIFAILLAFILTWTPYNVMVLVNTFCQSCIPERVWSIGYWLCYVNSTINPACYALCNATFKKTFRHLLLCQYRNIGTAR
UniProt P08173, whole entry: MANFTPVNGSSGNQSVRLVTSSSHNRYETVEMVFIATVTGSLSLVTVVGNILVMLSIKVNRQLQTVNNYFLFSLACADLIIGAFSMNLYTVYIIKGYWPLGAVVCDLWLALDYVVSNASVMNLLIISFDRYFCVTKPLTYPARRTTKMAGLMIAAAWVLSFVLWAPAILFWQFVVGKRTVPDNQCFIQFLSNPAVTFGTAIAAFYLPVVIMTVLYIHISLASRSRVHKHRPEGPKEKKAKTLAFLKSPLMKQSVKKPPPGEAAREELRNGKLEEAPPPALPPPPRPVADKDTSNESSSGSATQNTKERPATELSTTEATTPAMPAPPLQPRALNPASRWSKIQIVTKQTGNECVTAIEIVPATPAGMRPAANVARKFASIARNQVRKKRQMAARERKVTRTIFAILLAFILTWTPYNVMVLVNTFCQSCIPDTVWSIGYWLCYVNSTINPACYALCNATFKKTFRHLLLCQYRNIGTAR

In article PMC5340297 (Bioorganic & medicinal chemistry letters, 2016):

What was measured:
rM4 = rM4 (Rattus norvegicus, UniProt P08485); test: Calcium mobilization assay with rM4/Gqi5-CHO cells, EC20 acetylcholine; format: cell-based; details: read-out: rM4 EC50, n=3
hM4 = hM4 (Homo sapiens, UniProt P08173); test: Calcium mobilization assay with hM4/Gqi5-CHO cells, EC20 acetylcholine; format: cell-based; details: read-out: hM4 EC50, n=3

## Cc1nnc2sc(C(=O)NCc3ccc(S(=O)(=O)C(F)(F)F)cc3)c(N)c2c1C [compound 5]
rM4
  EC50: 17.8 nM
hM4
  EC50: 631 nM
